Measurements: ChEMBL document CHEMBL1153635, “Identification of [4-[4-(methylsulfonyl)phenyl]-6-(trifluoromethyl)-2-pyrimidinyl] amines and ethers as potent and selective cyclooxygenase-2 inhibitors” (Bioorg Med Chem Lett, 2009)

By UniProt entry, the sequences of proteins in these tests, tags left out.
UniProt P23219, whole entry: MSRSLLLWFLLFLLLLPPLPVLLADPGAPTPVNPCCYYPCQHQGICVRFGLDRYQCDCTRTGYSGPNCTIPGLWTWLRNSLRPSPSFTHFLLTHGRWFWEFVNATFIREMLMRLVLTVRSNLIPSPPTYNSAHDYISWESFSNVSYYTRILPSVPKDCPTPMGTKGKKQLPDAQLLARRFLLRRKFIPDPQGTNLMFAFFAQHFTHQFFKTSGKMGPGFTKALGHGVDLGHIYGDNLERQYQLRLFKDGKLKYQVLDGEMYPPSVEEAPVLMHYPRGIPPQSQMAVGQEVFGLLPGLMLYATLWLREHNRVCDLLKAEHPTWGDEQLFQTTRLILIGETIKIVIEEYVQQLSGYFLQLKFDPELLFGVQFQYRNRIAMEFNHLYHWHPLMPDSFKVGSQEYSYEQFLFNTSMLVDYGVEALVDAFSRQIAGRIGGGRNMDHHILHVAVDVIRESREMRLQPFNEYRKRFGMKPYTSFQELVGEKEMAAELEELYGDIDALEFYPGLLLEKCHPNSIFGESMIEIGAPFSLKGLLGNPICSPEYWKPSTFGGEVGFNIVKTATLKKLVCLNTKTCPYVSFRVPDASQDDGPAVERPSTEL

Experiments:
[1] = Selectivity ratio of IC50 for human COX1 to IC50 for human COX2 expressed in baculovirus-infected SF9 cells
[2] = biological target: Prostaglandin G/H synthase 1 (Homo sapiens, UniProt P23219); type: tissue-based, Blood

Structure (SMILES) | Ratio IC50 [1] | IC50 [2]
CS(=O)(=O)c1ccc(-c2cc(C(F)(F)F)nc(OCC3CCCC3)n2)cc1 | 3140 | 
CCCCOc1nc(-c2ccc(S(C)(=O)=O)cc2)cc(C(F)(F)F)n1 |  | 17.4 µM
